Literature values, collected in PMC7226360.

Protein sequences, listed by entry. Tags and fused reporters are not part of them. Residues count along the entry.
UniProt O75113, 847-896: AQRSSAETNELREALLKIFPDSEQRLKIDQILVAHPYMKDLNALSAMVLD

Target: ubiquitin (Homo sapiens) (UniProt P0CG48)

In the case of N4BP1 847-896 (from UniProt O75113), the Kd is listed as 50 µM.
